Columns and labels:
[1] = system: A549 human lung cancer cells; assay: MTT assay, A549 cells; format: cell-based; conditions: for Selectivity index (SI) HaCaT / A549: SI = IC50 HaCaT/IC50 A549; for Selectivity index (SI) V79 / A549: SI = IC50 V79/IC50 A549
A549 cells = assay: Mitochondrial ROS generation (MitoROS 580), A549; conditions: A549, 6 h and 12 h at IC50 concentration
[2] = system: PC3 human metastatic prostate cancer cells; assay: MTT assay, PC3 cells; format: cell-based; conditions: for Selectivity index (SI) HaCaT / PC3: SI = IC50 HaCaT/IC50 PC3; for Selectivity index (SI) V79 / PC3: SI = IC50 V79/IC50 PC3
[3] = system: SW480 human primary colon cancer cells; assay: MTT assay, SW480 cells; format: cell-based; conditions: for Selectivity index (SI) V79 / SW480: SI = IC50 V79/IC50 SW480; for Selectivity index (SI) HaCaT / SW480: SI = IC50 for normal cell line (HaCaT)/IC50 for cancer cell line (SW480)
MDA-MB-231 cells = assay: Mitochondrial ROS generation (MitoROS 580), MDA-MB-231; conditions: MDA-MB-231, 6 h and 12 h at IC50 concentration
[4] = system: MDA-MB-231 human breast cancer cells; assay: MTT assay, MDA-MB-231 cells; format: cell-based; conditions: for Selectivity index (SI) HaCaT / MDA-MB-231: SI = IC50 HaCaT/IC50 MDA-MB-231; for Selectivity index (SI) V79 / MDA-MB-231: SI = IC50 V79/IC50 MDA-MB-231
[5] = system: MiaPaCa human pancreas cancer cells; assay: MTT assay, MiaPaCa cells; format: cell-based; conditions: for Selectivity index (SI) HaCaT / MiaPaCa: SI = IC50 HaCaT/IC50 MiaPaCa; for Selectivity index (SI) V79 / MiaPaCa: SI = IC50 V79/IC50 MiaPaCa
[6] = system: SW620 human metastatic colon cancer cells; assay: MTT assay, SW620 cells; format: cell-based; conditions: for Selectivity index (SI) HaCaT / SW620: SI = IC50 HaCaT/IC50 SW620; for Selectivity index (SI) V79 / SW620: SI = IC50 V79/IC50 SW620
breast cancer stem cells = conditions: greater selectivity than paclitaxel; cited from earlier work

| Structure (SMILES) | Selectivity index (SI) HaCaT / A549 [1] | Selectivity index (SI) V79 / A549 [1] | mitochondrial ROS (mtROS) production (A549 cells) | Selectivity index (SI) HaCaT / PC3 [2] | Selectivity index (SI) V79 / PC3 [2] | Selectivity index (SI) V79 / SW480 [3] | Selectivity index (SI) HaCaT / SW480 [3] | mitochondrial ROS (mtROS) production (MDA-MB-231 cells) | Selectivity index (SI) HaCaT / MDA-MB-231 [4] | Selectivity index (SI) V79 / MDA-MB-231 [4] | Selectivity index (SI) HaCaT / MiaPaCa [5] | Selectivity index (SI) V79 / MiaPaCa [5] | Selectivity index (SI) HaCaT / SW620 [6] | Selectivity index (SI) V79 / SW620 [6] | selectivity of tumor growth inhibition in vivo relative to paclitaxel (breast cancer stem cells) |
| --- | --- | --- | --- | --- | --- | --- | --- | --- | --- | --- | --- | --- | --- | --- | --- |
| CC[C@@H](C(=O)[C@@H](C)[C@@H](O)[C@H](C)[C@@H]1O[C@@H]([C@@H](CC)C(=O)O)CC[C@@H]1C)[C@H]1O[C@]2(C=C[C@@H](O)[C@]3(CC[C@@](C)([C@H]4CC[C@](O)(CC)[C@H](C)O4)O3)O2)[C@H](C)C[C@@H]1C [SAL, Salinomycin, reference compound] | 0.4 | 0.8 | induced mtROS production | 0.2 | 0.4 | 1.1 | 0.5 | induced mtROS production | 0.6 | 1.2 | 0.2 | 0.5 | 0.4 | 0.8 | approximately 100 fold |
| CCC1(C2OC(C3OC(O)(Cn4cc(C[P+](c5ccccc5)(c5ccccc5)c5ccccc5)nn4)C(C)CC3C)CC2C)CCC(C2(C)CCC3(CC(O)C(C)C(C(C)C(OC)C(C)C(=O)O)O3)O2)O1 (centres unmarked) [2a] | 2 | 16.7 | lack of electron transport chain ROS generation | 1.5 | 12.5 | 10 | 1.2 | induced mtROS production | 0.9 | 7.1 | 2 | 16.7 | 0.9 | 7.1 |  |

From paper PMC12655037, “Mitochondrial-Targeted Triphenylphosphonium-Conjugated Ionophores with Enhanced Cytotoxicity in Cancer Cells” (Molecules, 2025)
